Test results from PubChem BioAssay (NCI).
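These data come from cells grown in 96-well plates and exposed to compound for 48 hours at five concentrations. The concentration for full growth arrest is given as TGI.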

Columns and labels:
Assay in all cases: NCI-60 cell line screen, 48 h
MOLT-4 leukemia = tested on: MOLT-4 leukemia
OVCAR-8 ovarian = tested on: OVCAR-8 ovarian
RXF 393 renal = tested on: RXF 393 renal
NCI-H522 lung = tested on: NCI-H522 lung
NCI-H226 lung = tested on: NCI-H226 lung
CAKI-1 renal = tested on: CAKI-1 renal
NCI-H23 lung = tested on: NCI-H23 lung
HOP-92 NSCLC = tested on: HOP-92 NSCLC
SW-620 colon = tested on: SW-620 colon
NCI/ADR-RES ovarian = tested on: NCI/ADR-RES ovarian
SK-MEL-5 melanoma = tested on: SK-MEL-5 melanoma
OVCAR-4 ovarian = tested on: OVCAR-4 ovarian
NCI-H322M lung = tested on: NCI-H322M lung
MCF7 breast = tested on: MCF7 breast
UACC-257 melanoma = tested on: UACC-257 melanoma
MDA-MB-231 breast = tested on: MDA-MB-231 breast
HS 578T breast = tested on: HS 578T breast
NCI-H460 lung = tested on: NCI-H460 lung
OVCAR-3 ovarian = tested on: OVCAR-3 ovarian
BT-549 breast = tested on: BT-549 breast
SN12C renal = tested on: SN12C renal
M14 melanoma = tested on: M14 melanoma
SF-539 CNS = tested on: SF-539 CNS
EKVX NSCLC = tested on: EKVX NSCLC
IGROV1 ovarian = tested on: IGROV1 ovarian
HCT-15 colon = tested on: HCT-15 colon
UACC-62 melanoma = tested on: UACC-62 melanoma
CCRF-CEM leukemia = tested on: CCRF-CEM leukemia
SK-MEL-28 melanoma = tested on: SK-MEL-28 melanoma
ACHN renal = tested on: ACHN renal
LOX IMVI melanoma = tested on: LOX IMVI melanoma
SK-MEL-2 melanoma = tested on: SK-MEL-2 melanoma
K-562 leukemia = tested on: K-562 leukemia
SNB-75 CNS = tested on: SNB-75 CNS
KM12 colon = tested on: KM12 colon
HT29 colon = tested on: HT29 colon
MDA-MB-435 = tested on: MDA-MB-435
HCC-2998 colon = tested on: HCC-2998 colon
HOP-62 NSCLC = tested on: HOP-62 NSCLC
SNB-19 CNS = tested on: SNB-19 CNS
TK-10 renal = tested on: TK-10 renal
A498 renal = tested on: A498 renal
U251 CNS = tested on: U251 CNS
MALME-3M melanoma = tested on: MALME-3M melanoma
SK-OV-3 ovarian = tested on: SK-OV-3 ovarian
DU-145 prostate = tested on: DU-145 prostate
SR leukemia = tested on: SR leukemia
786-0 renal = tested on: 786-0 renal
RPMI-8226 leukemia = tested on: RPMI-8226 leukemia
HL-60(TB) leukemia = tested on: HL-60(TB) leukemia
COLO 205 colon = tested on: COLO 205 colon
A549 NSCLC = tested on: A549 NSCLC
UO-31 renal = tested on: UO-31 renal
OVCAR-5 ovarian = tested on: OVCAR-5 ovarian
MDA-N = tested on: MDA-N
HCT-116 colon = tested on: HCT-116 colon
PC-3 prostate = tested on: PC-3 prostate
SF-268 CNS = tested on: SF-268 CNS
T-47D breast = tested on: T-47D breast
SF-295 CNS = tested on: SF-295 CNS

Cc1cc(N(CCCl)CCCl)ccc1C=O
TGI (MOLT-4 leukemia): 81.8 µM
TGI (OVCAR-8 ovarian): > 100 µM
TGI (RXF 393 renal): 43 µM
TGI (NCI-H522 lung): 64.7 µM
TGI (NCI-H226 lung): 16.6 µM
TGI (CAKI-1 renal): > 100 µM
TGI (NCI-H23 lung): > 100 µM
TGI (HOP-92 NSCLC): 40.8 µM
TGI (SW-620 colon): > 100 µM
TGI (NCI/ADR-RES ovarian): > 100 µM
TGI (SK-MEL-5 melanoma): > 100 µM
TGI (OVCAR-4 ovarian): > 100 µM
TGI (NCI-H322M lung): > 100 µM
TGI (MCF7 breast): > 100 µM
TGI (UACC-257 melanoma): 29.7 µM
TGI (MDA-MB-231 breast): > 100 µM
TGI (HS 578T breast): 85.3 µM
TGI (NCI-H460 lung): > 100 µM
TGI (OVCAR-3 ovarian): > 100 µM
TGI (BT-549 breast): 66.5 µM
TGI (SN12C renal): > 100 µM
TGI (M14 melanoma): > 100 µM
TGI (SF-539 CNS): > 100 µM
TGI (EKVX NSCLC): 96.3 µM
TGI (IGROV1 ovarian): > 100 µM
TGI (HCT-15 colon): > 100 µM
TGI (UACC-62 melanoma): 10 µM
TGI (CCRF-CEM leukemia): > 100 µM
TGI (SK-MEL-28 melanoma): > 100 µM
TGI (ACHN renal): > 100 µM
TGI (LOX IMVI melanoma): > 100 µM
TGI (SK-MEL-2 melanoma): 75.5 µM
TGI (K-562 leukemia): > 100 µM
TGI (SNB-75 CNS): > 100 µM
TGI (KM12 colon): > 100 µM
TGI (HT29 colon): > 100 µM
TGI (MDA-MB-435): > 100 µM
TGI (HCC-2998 colon): > 100 µM
TGI (HOP-62 NSCLC): > 100 µM
TGI (SNB-19 CNS): > 100 µM
TGI (TK-10 renal): 66.9 µM
TGI (A498 renal): 2.69 µM
TGI (U251 CNS): > 100 µM
TGI (MALME-3M melanoma): 40.1 µM
TGI (SK-OV-3 ovarian): > 100 µM
TGI (DU-145 prostate): > 100 µM
TGI (SR leukemia): > 100 µM
TGI (786-0 renal): > 100 µM
TGI (RPMI-8226 leukemia): > 100 µM
TGI (HL-60(TB) leukemia): 82 µM
TGI (COLO 205 colon): 88.1 µM
TGI (A549 NSCLC): 80 µM
TGI (UO-31 renal): 87.4 µM
TGI (OVCAR-5 ovarian): 53.2 µM
TGI (MDA-N): > 100 µM
TGI (HCT-116 colon): > 100 µM
TGI (PC-3 prostate): > 100 µM
TGI (SF-268 CNS): > 100 µM
TGI (T-47D breast): > 100 µM
TGI (SF-295 CNS): > 100 µM
